Data: patent publication US10189836B2, “Therapeutic compounds, compositions and methods of use thereof” (Genentech, Inc., priority 2015, dated 2019)

Tested on: JAK1-dependent STAT6 phosphorylation downstream of IL-13 stimulation in BEAS-2B cells

| Structure (SMILES) | IC50 [nM] |
| --- | --- |
| CN1CCN(C(=O)Cn2cc(Nc3nc4c(N5CC6CCC(C5)N6S(=O)(=O)C5CC5)cccn4n3)cn2)CC1 [Example 177, 2-[4-[[8-(8-cyclopropylsulfonyl-3,8-diazabicyclo[3.2.1]octan-3-yl)-[1,2,4]triazolo[1,5-a]pyridin-2-yl]amino]pyrazol-1-yl]-1-(4-methylpiperazin-1-yl)ethanone] | 309 |
| CN1CCN(C(=O)Cn2cc(Nc3nc4c(C5=CC6CCC(C5)N6C(=O)[C@H]5C[C@@H](C(F)(F)F)C5)cccn4n3)cn2)CC1 (stereo partly shown) [Example 20, 1-(4-methylpiperazin-1-yl)-2-[4-[[8-[8-[3-(trifluoromethyl)cyclobutanecarbonyl]-8-azabicyclo[3.2.1]oct-3-en-3-yl]-[1,2,4]triazolo[1,5-a]pyridin-2-yl]amino]pyrazol-1-yl]ethanone] | 33.2 |
| CSc1ccccc1C(=O)N1C2CCC1CN(c1cccn3nc(Nc4cnn(CC(=O)N5CCN(C)CC5)c4)nc13)C2 [Example 115] | 132 |
| CN1CCN(C(=O)Cn2cc(Nc3nc4c(N5CC6CCC(C5)N6S(=O)(=O)Cc5cccc(F)c5)cccn4n3)cn2)CC1 [Example 159, 2-[4-[[8-[8-[(3-fluorophenyl)methylsulfonyl]-3,8-diazabicyclo[3.2.1]octan-3-yl]-[1,2,4]triazolo[1,5-a]pyridin-2-yl]amino]pyrazol-1-yl]-1-(4-methylpiperazin-1-yl)ethanone] | 56.1 |
| CN1CCN(C(=O)Cn2cc(Nc3nc4c(N5CC6CCC(C5)N6S(=O)(=O)c5cccc(Cl)c5)cccn4n3)cn2)CC1 [Example 88, 2-[4-[[8-[8-(3-chlorophenyl)sulfonyl-3,8-diazabicyclo[3.2.1]octan-3-yl]-[1,2,4]triazolo[1,5-a]pyridin-2-yl]amino]pyrazol-1-yl]-1 - (4-methylpiperazin-1-yl)ethanone] | 14.2 |
| CC(F)(F)CNC1CCN(C(=O)Cn2cc(Nc3nc4c(N5CC6CCC(C5)N6C(=O)N5CC(C(F)(F)F)C5)cccn4n3)cn2)CC1 [Example 120, 1-[4-(2,2-difluoropropylamino)-1-piperidyl]-2-[4-[[8-[8-[3-(trifluoromethyl)azetidine-1-carbonyl]-3,8-diazabicyclo[3.2.1]octan-3-yl]-[1,2,4]triazolo[1,5-a]pyridin-2-yl]amino]pyrazol-1-yl]ethanone] | 75.8 |
| CN1CCN(C(=O)Cn2cc(Nc3nc4c(N5CC6CCC(C5)N6C(=O)c5cccc(CC#N)c5)cccn4n3)cn2)CC1 [Example 69, 2-[3-[3-[2-[[1-[2-(4-methylpiperazin-1-yl)-2-oxo-ethyl]pyrazol-4-yl]amino]-[1,2,4]triazolo[1,5-a]pyridin-8-yl]-3,8-diazabicyclo[3.2.1]octane-8-carbonyl]phenyl] acetonitrile] | 304 |
| CN1CCN(C(=O)Cn2cc(Nc3nc4c(N5CC6CCC(C5)N6C(=O)CC(F)(F)F)cccn4n3)cn2)CC1 [Example 12, 3,3,3-trifluoro-1-[3-[2-[[1-[2-(4-methylpiperazin-1-yl)-2-oxo-ethyl]pyrazol-4-yl]amino]-[1,2,4]triazolo[1,5-a]pyridin-8-yl]-3,8-diazabicyclo[3.2.1]octan-8-yl]propan-1-one] | 36.6 |
| O=C(Cn1cc(Nc2nc3c(N4CC5CCC(C4)N5C(=O)CCC(F)(F)F)cccn3n2)cn1)N1CCC(N2CCOCC2)CC1 [Example 74, 4,4,4-trifluoro-1-[3-[2-[[1-[2-(4-morpholino-1-piperidyl)-2-oxo-ethyl]pyrazol-4-yl]amino]-[1,2,4]triazolo[1,5-a]pyridin-8-yl]-3,8-diazabicyclo[3.2.1]octan-8-yl]butan-1-one] | 100 |
| CSCCN1CCN(C(=O)Cn2cc(Nc3nc4c(N5CC6CCC(C5)N6C(=O)N5CC(C(F)(F)F)C5)cccn4n3)cn2)CC1 [Example 186, 1-[4-(2-methylsulfanylethyl)piperazin-1-yl]-2-[4-[[8-[8-(3-(trifluoromethyl)azetidine-1-carbonyl]-3,8-diazabicyclo[3.2.1]octan-3-yl]-[1,2,4]triazolo[1,5-a]pyridin-2-yl]amino]pyrazol-1-yl]ethanone; formic acid] | 13.6 |
| CN1CCN(C(=O)Cn2cc(Nc3nc4c(C5=CC6CCC(C5)N6C(=O)CCC(F)(F)F)cccn4n3)cn2)CC1 (stereo not shown) [Example 18, 4,4,4-trifluoro-1-[3-[2-[[1-[2-(4-methylpiperazin-1-yl)-2-oxo-ethyl]pyrazol-4-yl]amino]-[1,2,4]triazolo[1,5-a]pyridin-8-yl]-8-azabicyclo[3.2.1]oct-3-en-8-yl]butan-1-one] | 278 |
| CN1CCN(C(=O)Cn2cc(Nc3nc4c(N5C[C@H]6CC[C@@H](C5)[C@H]6OCc5ccccc5)cccn4n3)cn2)CC1 [Example 1, 2-[4-[[8-[(1S,5R)-8-benzyloxy-3-azabicyclo[3.2.1]octan-3-yl]-[1,2,4]triazolo[1,5-a]pyridin-2-yl]amino]pyrazol-1-yl]-1-(4-methylpiperazin-1-yl)ethanone] | 11.7 |
| CN1CCN(C(=O)Cn2cc(Nc3nc4c(N5CC6CCC(C5)N6C(=O)N5CC(C(F)(F)F)C5)cccn4n3)cn2)CC1 [Example 2, 1-(4-methylpiperazin-1-yl)-2-[4-[[8-[8-[3-(trifluoromethyl)azetidine-1-carbonyl]-3,8-diazabicyclo[3.2.1]octan-3-yl]-[1,2,4]triazolo[1,5-a]pyridin-2-yl]amino]pyrazol-1-yl]ethanone] | 48.5 |
| CN1CCN(C(=O)Cn2cc(Nc3nc4c(N5CC6CCC(C5)N6C(=O)C5CC6C(C5)C6(F)F)cccn4n3)cn2)CC1 (stereo not shown) [Example 57, 2-[4-[[8-[8-(6,6-difluorobicyclo[3.1.0]hexane-3-carbonyl)-3,8-diazabicyclo[3.2.1]octan-3-yl]-[1,2,4]triazolo[1,5-a]pyridin-2-yl]amino]pyrazol-1-yl]-1-(4-methylpiperazin-1-yl)ethanone] | 86.8 |
| O=C(Cn1cc(Nc2nc3c(N4CC5CCC(C4)N5C(=O)N4CC(C(F)(F)F)C4)cccn3n2)cn1)N1CCN(C2COC2)CC1 [Example 194, 1-[4-(oxetan-3-yl)piperazin-1-yl]-2-[4-[[8-[8-[3-(trifluoromethyl)azetidine-1-carbonyl]-3,8-diazabicyclo[3.2.1]octan-3-yl]-[1,2,4]triazolo[1,5-a]pyridin-2-yl]amino]pyrazol-1-yl]ethanone] | 123 |
| CN1CCN(C(=O)Cn2cc(Nc3nc4c(N5C[C@H]6CC[C@@H](C5)[C@H]6OCc5ccncc5)cccn4n3)cn2)CC1 [Example 144, 1-(4-methylpiperazin-1-yl)-2-[4-[[8-[rac-(1S,5R)-8-(4-pyridylmethoxy)-3 - azabicyclo[3.2.1]octan-3-yl]-[1,2,4]triazolo[1,5-a]pyridin-2-yl]amino]pyrazol-1-yl]ethanone] | 39.2 |
| Cc1cc(S(=O)(=O)N2C3CCC2CN(c2cccn4nc(Nc5cnn(CC(=O)N6CCN(C)CC6)c5)nc24)C3)sn1 [Example 139, 2-[4-[[8-[8-(3-yl)sulfonyl-3,8-diazabicyclo[3.2.1]octan-3-yl]-[1,2,4]triazolo[1,5-a]pyridin-2-yl]amino]pyrazol-1-yl]-1-(4-methylpiperazin-1-yl)ethanone] | 18.6 |
| CN1CCN(C(=O)Cn2cc(Nc3nc4c(N5CC6CCC(C5)N6C(=O)C5CCSCC5)cccn4n3)cn2)CC1 [Example 52, 1-(4-methylpiperazin-1-yl)-2-[4-[[8-[8-(tetrahydrothiopyran-4-carbonyl)-3,8-diazabicyclo[3.2.1]octan-3-yl]-[1,2,4]triazolo[1,5-a]pyridin-2-yl]amino]pyrazol-1-yl]ethanone] | 223 |
| CN1CCN(C(=O)Cn2cc(Nc3nc4c(N5CC6CCC(C5)N6Cc5ccc(C#N)cc5)cccn4n3)cn2)CC1 [Example 56, 4-[[3-[2-[[1-[2-(4-methylpiperazin-1-yl)-2-oxo-ethyl]pyrazol-4-yl]amino]-[1,2,4]triazolo[1,5-a]pyridin-8-yl]-3,8-diazabicyclo[3.2.1]octan-8-yl]methyl]benzonitrile] | 651 |
| CN1CCN(C(=O)Cn2cc(Nc3nc4c(N5C[C@H]6CC[C@@H](C5)[C@H]6OCc5cccc(CO)c5)cccn4n3)cn2)CC1 [Example 195, 1-(4-methylpiperazin-1-yl)-2-[4-[[8-[rac-(1S,5R)-8-[[3-(hydroxymethyl)phenyl]methoxy]-3-azabicyclo[3.2.1]octan-3-yl]-[1,2,4]triazolo[1,5-a]pyridin-2-yl]amino]pyrazol-1-yl]ethanone] | 36.6 |
| CN1CCN(C(=O)Cn2cc(Nc3nc4c(N5CC6CCC(C5)N6C(=O)C5CC6CCC5O6)cccn4n3)cn2)CC1 (stereo not shown) [Example 53, 1-(4-methylpiperazin-1-yl)-2-[4-[[8-[8-(7-oxabicyclo[2.2.1]heptane-3-carbonyl)-3,8-diazabicyclo[3.2.1]octan-3-yl]-[1,2,4]triazolo[1,5-a]pyridin-2-yl]amino]pyrazol-1-yl]ethanone] | 133 |
| CN1CCN(C(=O)Cn2cc(Nc3nc4c(N5CC6CCC(C5)N6C(=O)c5ccc(Cl)cc5)cccn4n3)cn2)CC1 [Example 89] | 138 |
| CN1CCN(C(=O)Cn2cc(Nc3nc4c(N5CC6CCC(C5)N6C(=O)NCC(F)(F)F)cccn4n3)cn2)CC1 [Example 110, 3-[2-[[1-[2-(4-methylpiperazin-1-yl)-2-oxo-ethyl]pyrazol-4-yl]amino]-[1,2,4]triazolo[1,5-a]pyridin-8-yl]-N-(2,2,2-trifluoroethyl)-3,8-diazabicyclo[3.2.1]octane-8-carboxamide] | 138 |
| O=C(Cn1cc(Nc2nc3c(N4CC5CCC(C4)N5C(=O)CCC(F)(F)F)cccn3n2)cn1)N1CCN(C2CCCCC2)CC1 [Example 153, 1-[3-[2-[[1-[2-(4-cyclohexylpiperazin-1-yl)-2-oxo-ethyl]pyrazol-4-yl]amino]-[1,2,4]triazolo[1,5-a]pyridin-8-yl]-3,8-diazabicyclo[3.2.1]octan-8-yl]-4,4,4-trifluoro-butan-1-one] | 7.3 |
| N#CC1(CNC2CCN(C(=O)Cn3cc(Nc4nc5c(N6CC7CCC(C6)N7C(=O)C6CC(C(F)(F)F)C6)cccn5n4)cn3)CC2)CC1 (stereo not shown) [Example 190, 1-[[[1-[2-[4-[[8-[8-[3-(trifluoromethyl)cyclo-butanecarbonyl]-3,8-diazabicyclo[3.2.1]octan-3-yl]-[1,2,4]triazolo[1,5-a]pyridin-2-yl]amino]pyrazol-1-yl]acetyl]-4-piperidyl]amino]methyl]-cyclopropanecarbonitrile] | 120 |
